Data taken from ChEMBL document CHEMBL2046376, “Synthesis and antimicrobial activity of amide derivatives of polyether antibiotic-salinomycin” (2012).
Calls of active or inactive are those of the source. No cut-off for these calls is given here.

System: Escherichia coli
Test: Antibacterial activity against Escherichia coli ATCC 25922 after 18 hrs by twofold serial agar dilution technique
Format: functional

`O=C(O)c1cn(C2CC2)c2cc(N3CCNCC3)c(F)cc2c1=O` [CIPROFLOXACIN] was tested, and the Activity was “inactive”.
